Data published in patent EP3727043B1 (Golden Gait Biotech, S.L., priority 2017, dated 2019).
Where “and” joins values, the source holds several entries; their conditions need not be identical. Equal values may be shown once. Read-outs that look alike come from different tables or passages of the source.

How the values were obtained:
[1] = system: 1-methyl-4-phenyl-1,2,3,6-tetrahydropyridine (MPTP) monkeys; test: LIDs in parkinsonian nonhuman primates; settings: for reduction of LIDs in parkinsonian monkeys / Side effects in monkeys: monkey, in vivo; for Dose to reduce LIDs / persistence of the LID reduction, tolerance: monkeys
[2] = system: 1-methyl-4-phenyl-1,2,3,6-tetrahydropyridine (MPTP) monkeys; settings: monkey, in vivo
[3] = at the dose printed in column Dose to reduce LIDs (mg/kg)
[4] = parkinsonian monkeys, maximal decrease as worded in the text

| Structure (SMILES) | Decline in LIDs in monkeys [1, 3] | reduction of LIDs in parkinsonian monkeys [1] | Dose to reduce LIDs [1] | Side effects in monkeys [2] | Side effects in monkeys [1] | persistence of the LID reduction, tolerance [1] | Decline in LIDs in monkeys [1, 4] | side effects, emesis or nausea in monkeys [2] | Decline in LIDs in monkeys ([1]; dose 8.0 mg/kg) [%] |
| --- | --- | --- | --- | --- | --- | --- | --- | --- | --- |
| c1cc2cc(-c3ccc(O[C@H]4CN5CCC4CC5)nn3)ccc2[nH]1 [ABT-107] | 60% | reduced LIDs in parkinsonian monkeys with varying efficacy | 0.10 mg/kg | None |  |  |  |  |  |
| c1cnc2cc3c(cc2n1)[C@@H]1CNC[C@H]3C1 [Varenicline] | 50% |  | 0.03 mg/kg |  | Some nausea | no tolerance | ~ 50% |  |  |
| O=C(c1ccc(Cl)o1)N1CC2CNCC2C1 (centres unmarked) [AZD 1446] | 30% |  | 1.0 mg/kg |  | None |  | 30% |  |  |
| Cc1ncccc1OC[C@@H]1CCCN1 [ABT-089] | 30-50% |  | 0.10 mg/kg | None |  | persisted for months | 40% | no detectable side effects and no emesis |  |
| Clc1cc(N2C[C@@H]3CN[C@@H]3C2)cnc1Cl [ABT-894] | 60% |  | 0.01 mg/kg | None |  | persisted for months | up to 60% | no detectable side effects and no emesis |  |
| Cc1ccc(-c2ccc(OC3CN4CCC3CC4)cn2)cc1 (centres unmarked) [AQW051] |  | reduced LIDs in parkinsonian monkeys with varying efficacy | 15.0 mg/kg and 8.0 mg/kg | None |  |  |  |  | 0 |
